Assay results as given in ChEMBL document CHEMBL5528032, “Novel Carbonic Anhydrase Inhibitors with Dual-Tail Core Sulfonamide Show Potent and Lasting Effects for Glaucoma Therapy” (J Med Chem, 2024).
Active and inactive are the calls of the source. The calls are words filed in the database; no cut-off is given here.

The chains behind the UniProt entries cited, without tags or fusion partners. Where a name states a change or a piece, a line headed by the entry shows the natural chain unless it says otherwise.
UniProt P43116: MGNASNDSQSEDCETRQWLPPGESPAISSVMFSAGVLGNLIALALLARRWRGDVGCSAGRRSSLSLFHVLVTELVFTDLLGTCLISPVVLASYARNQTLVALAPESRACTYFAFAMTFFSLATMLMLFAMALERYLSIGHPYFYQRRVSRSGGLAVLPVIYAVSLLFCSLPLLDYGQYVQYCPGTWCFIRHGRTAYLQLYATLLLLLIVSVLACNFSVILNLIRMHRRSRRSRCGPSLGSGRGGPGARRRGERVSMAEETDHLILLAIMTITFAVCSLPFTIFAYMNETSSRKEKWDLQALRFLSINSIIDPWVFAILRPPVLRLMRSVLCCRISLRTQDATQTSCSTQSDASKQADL

Key:
[1] = target: Prostaglandin E2 receptor EP2 subtype (Homo sapiens) (UniProt P43116); test: Agonist activity at human EP2 receptor expressed in HEK293 cells incubated for 7 hrs; assay type: functional, cell-based
[2] = target: Prostaglandin E2 receptor EP2 subtype (Homo sapiens) (UniProt P43116); test: Agonist activity at human EP2 receptor expressed in HEK293 cells at 100 uM incubated for 7 hrs relative to control; assay type: functional, cell-based; conditions: filed as agonist

Row | Activity [1] | Activity [2] | Structure (SMILES)
1 | inactive | 40% | NS(=O)(=O)c1ccc(CCN(Cc2cccc(NCC(=O)O)c2)S(=O)(=O)c2ccccc2)cc1
2 | inactive |  | NS(=O)(=O)c1ccc(CN(Cc2cccc(NCC(=O)O)c2)S(=O)(=O)c2cccc(C(F)(F)F)c2)cc1
3 | inactive | 40% | NS(=O)(=O)c1ccc(CN(Cc2cccc(OCC(=O)O)c2)S(=O)(=O)c2ccccc2)cc1
4 | inactive |  | NS(=O)(=O)c1ccc(CN(Cc2cccc(NCC(=O)O)c2)S(=O)(=O)c2ccccc2)cc1
5 | inactive |  | Cc1ccc(S(=O)(=O)N(Cc2ccc(S(N)(=O)=O)cc2)Cc2cccc(NCC(=O)O)c2)cc1
6 | inactive |  | NS(=O)(=O)c1ccc(CN(Cc2cccc(OCC(=O)O)c2)S(=O)(=O)c2cccc(C(F)(F)F)c2)cc1
